Assay: Solid-state stability of the co-crystal under storage, thermal stress and humidity, checked by XRPD

**Q.** Which “XRPD spectrum after heating (thermal stability)” value ([…]) does the source give for Cl.Cl.N#Cc1ccc2[nH]cc(CCCCN3CCN(c4ccc5oc(C(N)=O)cc5c4)CC3)c2c1.N#Cc1ccc2[nH]cc(CCCCN3CCN(c4ccc5oc(C(N)=O)cc5c4)CC3)c2c1.O=C(O)C(O)C(O)C(=O)O here?
**A.** shows a XRPD spectrum as substantially shown in FIG. 1

**Q.** What about the “XRPD spectrum after storage (physical stability)” value (closed in a sealed vial, one month at room temperature) of the same compound?
**A.** shows a XRPD spectrum as substantially shown in FIG. 1

**Q.** And the “XRPD spectrum after heating (thermal stability)” value (heated under vacuum at 90° C. for one day)?
**A.** shows a XRPD spectrum as substantially shown in FIG. 1

**Q.** What about the “XRPD spectrum after exposure to moisture (humidity stability)” value (three days at relative humidity about 71-76%, in particular 75%, room temperature 19-23° C.) of the same compound?
**A.** shows a XRPD spectrum as substantially shown at FIG. 1

Source: patent US20150126526A1, “CO-CRYSTAL OF AN ANTIDEPRESSANT COMPOUND” (Dipharma Francis S.r.l, priority 2013, published 2015)
